Results reported in US20200009275A1, “PIGMENT-COUPLED MANNOSYL SERUM ALBUMIN COMPLEX AND LYMPH NODE-PROBING COMPOSITION COMPRISING SAME” (priority 2017, published 2020).
Each block holds one compound with its values, some of them ahead of it.

By UniProt entry, the sequences of proteins in these tests, tags left out. Residues count along the entry.
UniProt P02768, 25-609: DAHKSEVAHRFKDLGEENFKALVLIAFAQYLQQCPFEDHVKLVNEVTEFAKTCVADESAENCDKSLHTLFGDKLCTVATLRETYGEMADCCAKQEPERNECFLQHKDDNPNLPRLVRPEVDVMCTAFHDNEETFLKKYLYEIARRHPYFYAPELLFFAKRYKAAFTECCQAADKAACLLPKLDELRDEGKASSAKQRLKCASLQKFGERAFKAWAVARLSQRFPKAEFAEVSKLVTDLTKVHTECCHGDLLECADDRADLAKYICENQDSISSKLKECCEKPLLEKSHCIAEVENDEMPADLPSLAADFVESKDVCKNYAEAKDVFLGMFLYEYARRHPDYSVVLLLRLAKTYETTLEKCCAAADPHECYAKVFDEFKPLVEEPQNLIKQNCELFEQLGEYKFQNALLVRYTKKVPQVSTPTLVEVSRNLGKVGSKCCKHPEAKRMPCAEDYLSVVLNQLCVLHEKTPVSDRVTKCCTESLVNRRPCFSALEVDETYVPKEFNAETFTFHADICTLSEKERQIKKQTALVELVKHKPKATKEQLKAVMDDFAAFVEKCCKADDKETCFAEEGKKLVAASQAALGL

How the values were obtained:
MSA = target: T1, MSA (Homo sapiens, UniProt P02768); experiment: TLC measurement of pigment not coupled to MSA; type: binding
T1 construct: purchased Green Cross Corp., Korea
Method: 2 ml of 200 mg/mL MSA was added thereto to prepare the reaction mixture in total volume of 3 mL. […]
Upon completion of the reaction, the amount of the pigment not coupled to MSA was measured by performing thin layer chromatography (TLC) with the pigment-coupled MSA hourly. At this time, methanol and methylene chloride (MeOH:MeCl2) mixture was used as a solvent and the results were quantitatively analyzed by multi-gauge 3.0 software using LAS3000 (Fuji Film).

[1] = Absorption peak and molecular extinction coefficient of pigment-coupled MSA; type: physicochemical; settings: for Wavelength (absorption peak): scan 350 nm to 850 nm
Method: The pigment-coupled MSA solution was loaded in a 96-well plate, which was scanned with visible light ranging between 350 nm and 850 nm to measure the absorbance at the peak of absorption spectrum using Varioskan Flash (Thermo Fisher Scientific Inc., Finland) spectrometer. The molecular extinction coefficient was measured by calculating the absorbance per 1 cm length according to Beer-Lambert law.

[2] = tested on: mouse popliteal lymph node; experiment: Lymph node probing effect of pigment and Tc-99m labeled MSA in an animal model; type: in vivo; settings: mice
[3] = 35 μl subcutaneously into the soles, naked eye and SPECT/CT

Percentage of pigment not coupled to MSA (MSA; 10 min): 0.0 ± 0.0% | Percentage of pigment not coupled to MSA (MSA; 30 min): 0.0 ± 0.0% | Percentage of pigment not coupled to MSA (MSA; 1 hr): 0.0 ± 0.0% | Percentage of pigment not coupled to MSA (MSA; 2 hr): 0.0 ± 0.0% | Percentage of pigment not coupled to MSA (MSA; 6 hr): 0.0 ± 0.0% | Percentage of pigment not coupled to MSA (MSA; 24 hr): 0.0 ± 0.0% | Binding of pigment to MSA (in words) (MSA; Table 2): bind stably and strongly to MSA
Compound: CCOc1ccc(Nc2ccc(/C(=C3C=C/C(=[N+](/CC)Cc4cccc(S(=O)(=O)[O-])c4)C=C/3C)c3ccc(N(CC)Cc4cccc(S(=O)(=O)[O-])c4)cc3C)cc2)cc1.[Na+] [BG, brilliant blue G]
ε (molecular extinction coefficient) ([1]; at absorption peak, per 1 cm, Beer-Lambert law): 61852 | Wavelength (absorption peak) [1]: 620 nm

Compound: EB-coupled Tc-99m-MSA: Evans blue-coupled MSA mixed with Tc-99m labeled MSA, prepared in Example 4
Time after administration at which pigment and radioactivity were condensed in the popliteal lymph node [2, 3]: 10 min | Time for which condensation in the popliteal lymph node continued [2, 3]: 4 h | Lymph node probing effect (in words) ([2]; subcutaneous injection): effective agent for probing the lymph node

Compound: patent blue VF [PBVF]
Wavelength (absorption peak) [1]: 640 nm

Compound: reactive blue 4 [RB4]
Wavelength (absorption peak) [1]: 600 nm
